Chains of the proteins cited; added tags and fusions are not shown. Residues count along the entry.
UniProt Q92918, 1-346 limits assumed: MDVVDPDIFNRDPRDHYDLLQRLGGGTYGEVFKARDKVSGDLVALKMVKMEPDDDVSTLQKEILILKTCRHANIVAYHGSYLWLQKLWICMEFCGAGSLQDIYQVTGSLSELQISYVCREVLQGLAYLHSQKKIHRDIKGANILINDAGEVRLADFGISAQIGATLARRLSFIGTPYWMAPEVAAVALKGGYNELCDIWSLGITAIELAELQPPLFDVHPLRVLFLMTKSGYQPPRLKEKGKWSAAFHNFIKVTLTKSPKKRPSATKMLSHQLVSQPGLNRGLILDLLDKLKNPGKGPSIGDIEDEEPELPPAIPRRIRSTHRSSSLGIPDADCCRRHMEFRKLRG

According to patent publication US20210139484A1, “DIHYDROISOQUINOLINE-2(1H)-CARBOXAMIDE AND RELATED COMPOUNDS AND THEIR USE IN TREATING MEDICAL CONDITIONS” (GOSSAMER BIO SERVICES, INC., priority 2018, published 2021):

These compounds were tested against human HPK1 protein (Homo sapiens, UniProt Q92918) (assay: Human HPK1 protein TR-FRET assay). Conditions: 1 mM ATP, Table 19.
Description: Exemplary compounds from the above Examples were tested for ability to inhibit HPK1 using a human HPK1 protein TR-FRET Assay. Assay procedures and results are described below.
N-terminal GST-tagged recombinant human HPK1 protein (a.a. 1-346) was expressed in Sf9 insect cells using a baculovirus expression system (Signalchem Catalog #M23-11G). The enzyme was diluted in assay buffer (50 mM Tris pH 7.5, 1 mM MgCl2, 0.01% NP-40 and 2 mM DTT) to obtain a 4× working solution at a concentration of 40 nM HPK1 enzyme.
A 5 μM stock of ULight™ CREBtide peptide RRPSYRK (Perkin Elmer Product No. TRF0107-M) derived from human cAMP Response Element Binding (CREB) Protein was prepared in storage buffer containing 50 mM Tris-HCl (pH 7.4), 0.9% NaCl, 0.1% BSA, and 0.05% sodium azide. The CREBtide substrate was diluted in assay buffer (50 mM Tris pH 7.5, 1 mM MgCl2, 0.01% NP-40, 2 mM DTT) with 2 mM ATP to a final concentration of 200 nM CREBtide peptide to obtain a 2× working solution of substrate. HPK1 enzyme and CREBtide substrate solutions were mixed with compounds diluted in DMSO to obtain a final concentration of enzyme, substrate, and ATP of 10 nM, 100 nM, and 1 mM, respectively, in 1% DMSO. The final assay mixture was incubated at room temperature for 60 minutes.
A solution of Europium-labeled anti-phospho-CREB (Ser133) antibody (Perkin Elmer Product No. TRF0200-M), EDTA and LANCE™ Detection Buffer (Perkin Elmer Product No. CR97-100) were added to each well to obtain a final concentration of 2 nM antibody, 10 mM EDTA and 1× LANCE buffer. The resulting mixture was incubated at room temperature for 60 minutes.
The fluorescence resonance energy transfer (FRET) signal was measured on an Envision plate reader: Excitation filter=340 nm, APC emission=665 nm, Europium emission=615 nm, dichroic mirror=D400/D630, delay time=100 μs, and integration time=200 μs. The half maximal inhibitory concentration (IC50) values for compounds were calculated from the quotient of the fluorescence signal at 665 nm divided by the fluorescence signal at 615 nm. The quotient of the fluorescence signals in the presence of DMSO without compound is set as 100 percent enzymatic activity. A 4-parameter logistic model in PRISM (GraphPad) was used to calculate the IC50 for a given compound.

SMILES | IC50 [nM]
CCN1CCN(Cc2ccc(NC(=O)N3Cc4cc(Oc5ccnc6[nH]ccc56)ccc4CC3C)cc2C(F)(F)F)CC1 (stereo not drawn) | < 500
CCN1CCN(Cc2ccc(NC(=O)N3CCc4ccc(Nc5ccnc6[nH]ccc56)cc4C3)cc2C(F)(F)F)CC1 | < 500

Same assay, conditions: 1 mM ATP, Table 20

SMILES | IC50 [nM]
CCN1CCN(Cc2ccc(NC(=O)N3Cc4cc(Oc5ccnc6[nH]c(CO)cc56)cnc4[C@@H](C)C3)cc2C(F)(F)F)CC1 | < 500
CC[C@H]1CN(C(=O)Nc2ccc(CN3CCN(C)CC3)c(C(F)(F)F)c2)Cc2cc(Oc3ccnn4cc(C(=O)N(C)C)cc34)cnc21 | < 500
CC[C@@H]1CN(C(=O)Nc2ccc(CN3CCN(CC)CC3)c(C(F)(F)F)c2)Cc2cc(Oc3ccnc4[nH]ccc34)cnc21 | < 500
CC[C@H]1CN(C(=O)Nc2ccc(CN3CCNCC3)c(C(F)(F)F)c2)Cc2cc(Oc3ccnc4[nH]c(C5(O)COC5)cc34)cnc21 | < 500
CC[C@H]1CN(C(=O)Nc2ccc(CN3CCN(C)CC3)c(C(F)F)c2)Cc2cc(Oc3ccnc4[nH]c(C5(O)COC5)cc34)ccc21 | < 500
CC[C@H]1CN(C(=O)Nc2ccc(CN3CCNCC3)c(C(F)(F)F)c2)Cc2cc(Oc3ccnc4[nH]c(C5(O)COC5)cc34)ccc21 | < 500
C[C@@H]1CN(C(=O)Nc2ccc(CN3CCN(C)CC3)c(C(F)(F)F)c2)Cc2cc(Oc3ccnc4[nH]c(C#N)cc34)ccc21 | < 500
CC[C@@H]1CN(C(=O)Nc2ccc(CN3CCN(C)CC3)c(C(F)(F)F)c2)Cc2cc(Oc3ccnc4[nH]c(C#N)cc34)cnc21 | < 500
CCN1CCN(Cc2ccc(NC(=O)N3Cc4cc(Oc5ccnc6[nH]c(C)cc56)ccc4C(C#N)C3)cc2C(F)(F)F)CC1 (stereo not drawn) | < 500
CCN1CCN(Cc2ccc(NC(=O)N3Cc4cc(Oc5ccnc6c5CCC(=O)N6)cnc4C(C)C3)cc2C(F)(F)F)CC1 (single isomer, unassigned) | < 500
CC[C@H]1CN(C(=O)Nc2cnc(OC3CCN(C)CC3)c(C(F)(F)F)c2)Cc2cc(Oc3ccnc4[nH]c(C5CC5)cc34)cnc21 | < 500
CC[C@@H]1CN(C(=O)Nc2ccc(CN3CCN(C)CC3)c(C(F)F)c2)Cc2cc(Oc3ccnc4[nH]c(C5(O)COC5)cc34)cnc21 | < 500
Cc1cc2c(Oc3cnc4c(c3)CN(C(=O)Nc3ccc(CN5C[C@@H]6C[C@H]5CN6C)c(C(F)(F)F)c3)C[C@H]4C)ccnc2[nH]1 | 5000 to 10000
CCN1CCN(Cc2ccc(NC(=O)[C@H]3Cc4cc(Oc5ccnc6[nH]ccc56)cnc4[C@@H](C)C3)cc2C(F)(F)F)CC1 (relative stereo) | < 500
CC[C@H]1CN(C(=O)Nc2ccc(CN3CCN(CC)CC3)c(C(F)(F)F)c2)Cc2cc(Oc3ccnc4[nH]c(C5CC5)cc34)cnc21 | < 500
CC[C@H]1CN(C(=O)Nc2ccc(CN3CCN(C)CC3)c(C(F)(F)F)c2)Cc2cc(Oc3ccnn4cc(C(=O)N(C)C)nc34)cnc21 | 500 to 5000
CC[C@H]1CN(C(=O)Nc2ccc(CN3CCNCC3)c(C(F)(F)F)c2)Cc2cc(Oc3ccnc4[nH]c(C#N)cc34)cnc21 | < 500
C[C@@H]1CN(C(=O)Nc2ccc(CN3CCN(C)CC3)c(C(F)(F)F)c2)Cc2cc(Oc3ccnc4[nH]c(C5(O)CC5)cc34)cnc21 | < 500
CC[C@@H]1CN(C(=O)Nc2ccc(CN3CCN(C)CC3)c(C(F)(F)F)c2)Cc2cc(Oc3ccnc4[nH]c(C#N)cc34)ccc21 | < 500
CC[C@H]1CN(C(=O)Nc2ccc(CN3CCN(C)CC3)c(C(F)(F)F)c2)Cc2cc(Oc3ccnn4cc(C(=O)NC)cc34)cnc21 | < 500
CC[C@@H]1CN(C(=O)Nc2cnc(CN3CCN(CC)CC3)c(C(F)(F)F)c2)Cc2cc(Oc3ccnc4[nH]c(C5CC5)cc34)cnc21 | < 500
CC[C@H]1CN(C(=O)Nc2ccc(CN3CCN(CC)CC3)c(C(F)(F)F)c2)Cc2cc(Oc3ccnc4[nH]c(CO)cc34)cnc21 | < 500
CC[C@H]1CN(C(=O)Nc2ccc(CN3CCN(C)CC3)c(C(F)(F)F)c2)Cc2cc(Oc3ccnc4[nH]c(C(C)=O)cc34)cnc21 | < 500
C[C@@H]1CN(C(=O)Nc2ccc(CN3CCN(CCO)CC3)c(C(F)(F)F)c2)Cc2cc(Oc3ccnc4[nH]c(C#N)cc34)ccc21 | < 500
CC[C@H]1CN(C(=O)Nc2ccc(CN3CCN(CCO)CC3)c(C(F)(F)F)c2)Cc2cc(Oc3ccnc4[nH]c(C5CC5)cc34)ccc21 | < 500

SMILES | IC50 [nM]
CN(C)C(=O)c1cc2c(Oc3ccc4c(c3)CN(C(=O)Nc3ccc(CN5CCNCC5)c(C(F)(F)F)c3)CC4)ccnc2[nH]1 | < 500
CC[C@H]1CN(C(=O)Nc2ccc(CN3CCN(CCO)CC3)c(C(F)F)c2)Cc2cc(Oc3ccnc4[nH]c(C5CC5)cc34)ccc21 | < 500
CC[C@H]1CN(C(=O)Nc2ccc(CN3CCNCC3)c(C(F)(F)F)c2)Cc2cc(Oc3ccnc4[nH]c(C(=O)N(C)C)cc34)cnc21 | < 500
CC[C@H]1CN(C(=O)Nc2ccc(CN3CCN(C)CC3)c(C(F)(F)F)c2)Cc2cc(Oc3ccnc4[nH]c(-c5n[nH]c(C)n5)cc34)cnc21 | < 500
CC[C@H]1CN(C(=O)Nc2ccc(CN3CCN(CC)CC3)c(C(F)(F)F)c2)Cc2cc(Oc3ccnc4[nH]ccc34)cnc21 | < 500
CC[C@H]1CN(C(=O)Nc2ccc(CN3CCN(C)CC3)c(C(F)F)c2)Cc2cc(Oc3ccnc4[nH]c(CO)cc34)ccc21 | < 500
CC[C@H]1CN(C(=O)Nc2ccc(CN3CCN(CC)CC3)c(C(F)(F)F)c2)Cc2cc(Oc3ncnc4[nH]c(C5CC5)cc34)cnc21 | < 500
CC[C@@H]1CN(C(=O)Nc2ccc(CN3CCN(C)CC3)c(C(F)F)c2)Cc2cc(Oc3ccnc4[nH]c(C5CC5)cc34)cnc21 | < 500
CC[C@H]1CN(C(=O)Nc2cnc(OC3CCN(C)CC3)c(C(F)(F)F)c2)Cc2cc(Oc3ccnc4[nH]c(C5(O)CC5)cc34)cnc21 | < 500
CC[C@H]1CN(C(=O)Nc2ccc(CN3CCN(C)CC3)c(C(F)(F)F)c2)Cc2cc(Oc3ccnc4[nH]c(C5(O)COC5)cc34)ccc21 | < 500
CCN1CCN(Cc2ccc(NC(=O)[C@@H]3Cc4cc(Oc5ccnc6[nH]ccc56)cnc4[C@@H](C)C3)cc2C(F)(F)F)CC1 (relative stereo) | < 500
CN1CCN(Cc2ccc(NC(=O)N3CCc4ccc(Oc5ccnc6[nH]c(C(=O)N(C)C)cc56)cc4C3)cc2C(F)(F)F)CC1 | < 500
CC[C@@H]1CN(C(=O)Nc2cnc(CN3CCN(CC)CC3)c(C(F)(F)F)c2)Cc2cc(Oc3ccnc4[nH]c(C#N)cc34)cnc21 | < 500
CC[C@H]1CN(C(=O)Nc2ccc(CN3CCNCC3)c(C(F)(F)F)c2)Cc2cc(Oc3ccnn4cc(C(=O)N(C)C)nc34)cnc21 | 5000 to 10000
CC[C@H]1CN(C(=O)Nc2ccc(CN3CCN(C)CC3)c(C(F)(F)F)c2)Cc2cc(Oc3ncnc4[nH]c(C(=O)N(C)C)cc34)cnc21 | < 500
CC[C@H]1CN(C(=O)Nc2cnc(OC3CCN(C)CC3)c(C(F)(F)F)c2)Cc2cc(Oc3ccnc4[nH]c(C#N)cc34)cnc21 | < 500
CC[C@H]1CN(C(=O)Nc2ccc(CN3CCN(C)CC3)c(C(F)(F)F)c2)Cc2cc(Oc3ccnc4[nH]c(C(=O)NCCO)cc34)cnc21 | < 500
CC[C@@H]1CN(C(=O)Nc2ccc(CN3CCN(C)CC3)c(C(F)F)c2)Cc2cc(Oc3ccnc4[nH]c(CO)cc34)cnc21 | < 500
CC[C@H]1CN(C(=O)Nc2ccc(CN3CCN(C)CC3)c(C(F)F)c2)Cc2cc(Oc3ncnc4[nH]c(C5CC5)cc34)ccc21 | < 500
CC[C@@H]1CN(C(=O)Nc2cnc(O[C@@H]3CCN(C)C3)c(C(F)(F)F)c2)Cc2cc(Oc3ccnc4[nH]c(C)cc34)cnc21 | 500 to 5000
CC[C@@H]1CN(C(=O)Nc2ccc(CN3CCN(CC)CC3)c(C(F)(F)F)c2)Cc2cc(Oc3ccnc4[nH]c(CCOC)cc34)cnc21 | < 500
CC[C@H]1CN(C(=O)Nc2ccc(CN3CCN(CCO)CC3)c(C(F)F)c2)Cc2cc(Oc3ccnc4[nH]c(CO)cc34)ccc21 | < 500
CC[C@H]1CN(C(=O)Nc2ccc(CN3CCN(C)CC3)c(C(F)F)c2)Cc2cc(Oc3ccnc4[nH]c(C#N)cc34)ccc21 | < 500
CC[C@H]1CN(C(=O)Nc2ccc(CN3CCN(C)CC3)c(C(F)(F)F)c2)Cc2cc(Oc3ccnc4[nH]c(C(=O)N5CC[C@@H](O)C5)cc34)cnc21 | < 500
